# Experiments:
# [1] = test system: HT-29 lung cancer cells; assay: MTT cell survival in HT-29 cells (Table 2); assay type: cell-based; details: Homo sapiens
# From the text: AKT inhibition leads to cellular apoptosis.
# [2] = target: T1, PH domain of PDK1 (Homo sapiens, UniProt O15530); assay: SPR direct binding, KD, PDK1 PH domain; details: Table 10, SPR; read-out: PDK1 PH mKD
# T1 sequence (O15530 459-550 limits assumed): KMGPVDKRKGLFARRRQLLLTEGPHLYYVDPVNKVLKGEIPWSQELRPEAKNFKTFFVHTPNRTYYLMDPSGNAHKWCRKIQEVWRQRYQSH
Structure (SMILES),IC50 [1] [µM],Kd [2] [µM]
"CC1=NN(C(=O)c2ccc(Cl)cc2)C(=O)C1/N=N/c1ccc(S(=O)(=O)Nc2ncccn2)cc1 (stereo not drawn) [Compound 316, (E)-4-((1-(4-chlorobenzoyl)-3-methyl-5-oxo-4,5-dihydro-1H-pyrazol-4-yl)diazenyl)-N-(pyrimidin-2-yl)benzenesulfonamide]",25,31.3
CC1=NN(C(=O)c2ccccc2)C(=O)C1/N=N/c1ccc(S(=O)(=O)Nc2ncccn2)cc1 (stereo not drawn) [Compound 331],,0.17 ± 0.1
